Experimental findings from paper PMC11196219 are described below.

The subject of the data set is non-transfected 293T cells.

A word on the CC50: it is the concentration at which the toxic effect on the cells reaches its halfway point. High values mean better tolerance by the cells, low ones harm at low concentration. For the molecule `O=CC(CC1CCNC1=O)NC(=O)C(CC1CCCCC1)NC(=O)c1cc2ccccc2[nH]1` (stereo not shown), the CC50 was 51 µM.
